# Measured values published in ChEMBL document CHEMBL1148291, “Prediction of human volume of distribution values for neutral and basic drugs. 2. Extended data set and leave-class-out statistics” (J Med Chem, 2004).
# This is a selection: effects in other tests are not listed, and their absence says nothing.
# Test: Ionization constant (pKa)
# Type: physicochemical
smiles,measurement,value
CCC(=O)N(c1ccccc1)C1(COC)CCN(CCn2nnn(CC)c2=O)CC1,pKa,6.5
